Assay results reported in patent US20170305922A1, “CARM1 INHIBITORS AND USES THEREOF” (Epizyme, Inc., priority 2014, published 2017).

Amino acid sequences for entries named in this document (tags omitted). Residues count along the entry.
UniProt Q86X55, 1-585 isoform 1: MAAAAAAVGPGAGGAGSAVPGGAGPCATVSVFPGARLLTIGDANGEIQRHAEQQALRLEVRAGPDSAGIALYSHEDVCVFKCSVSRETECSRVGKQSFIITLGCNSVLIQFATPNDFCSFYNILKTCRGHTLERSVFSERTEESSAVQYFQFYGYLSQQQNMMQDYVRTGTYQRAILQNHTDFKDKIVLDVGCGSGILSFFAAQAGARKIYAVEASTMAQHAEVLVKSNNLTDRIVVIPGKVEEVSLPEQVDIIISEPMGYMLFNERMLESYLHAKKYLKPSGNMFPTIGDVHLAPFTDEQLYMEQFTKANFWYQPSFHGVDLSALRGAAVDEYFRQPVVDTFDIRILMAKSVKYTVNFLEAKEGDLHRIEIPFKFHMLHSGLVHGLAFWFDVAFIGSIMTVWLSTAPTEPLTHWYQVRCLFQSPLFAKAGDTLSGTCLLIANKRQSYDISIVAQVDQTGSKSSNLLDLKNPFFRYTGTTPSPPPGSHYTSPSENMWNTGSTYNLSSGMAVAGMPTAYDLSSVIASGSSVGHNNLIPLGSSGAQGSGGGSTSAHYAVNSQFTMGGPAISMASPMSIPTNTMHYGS

How the values were obtained:
Human CARM1 (PRMT4) = Human CARM1 (PRMT4) (Homo sapiens, UniProt Q86X55); assay: CARM1 enzyme assay on peptide substrates (3H-SAM Flashplate); details: read-out: Biochem IC50; Biochemical assay; CARM1 0.25 nM, 3H-SAM 30 nM, peptide 250 nM
[1] = tested on: asymmetric di-methyl PABP1 in RKO cells; assay: RKO methylation assay: In Cell Western (ICW) for asymmetric di-methyl PABP1 (PABP1me2a); details: read-out: Cellular IC50, Cellular-based (PABP1me2a) ICW (In Cell Western) assay, 48 hours
Text: RKO adherent cells were purchased from ATCC (American Type Culture Collection), Manassas, Va., USA. DMEM/Glutamax medium, penicillin-streptomycin, heat inactivated fetal bovine serum, 0.05% trypsin and D-PBS were purchased from Life Technologies, Grand Island, N.Y., USA. Odyssey blocking buffer, 800CW goat anti-rabbit IgG (H+L) antibody, and Licor Odyssey infrared scanner were purchased from Licor Biosciences, Lincoln, Nebr., USA. Asymmetric di-methyl PABP1 antibody was purchased from Cell Signaling Technology, Danvers, Mass., USA. Methanol was purchased from VWR, Franklin, Mass., USA. 10% Tween 20 was purchased from KPL, Inc., Gaithersburg, Md., USA. Paraformaldehyde (PFA) was purchased from EM Sciences. DRAQ5 was purchased from Biostatus Limited, Leicestershire, UK.
RKO adherent cells were maintained in growth medium (DMEM/Glutamax medium supplemented with 10% v/v heat inactivated fetal bovine serum and 100 units/mL penicillin-streptomycin) and cultured at 37° C. under 5% CO2.
Cell treatment, In Cell Western (ICW) for detection of asymmetric di-methyl PABP1 and DNA content: RKO cells were seeded in assay medium at a concentration of 30,000 cells per mL to a poly-D-lysine coated 384 well culture plate (BD Biosciences 356697) with 50 μL per well. Compound (100 nL) from a 96-well source plate was added directly to 384 well cell plate. Plates were incubated at 37° C., 5% CO2 for 48 hours. After two days of incubation, plates were brought to room temperature outside of the incubator for ten minutes and blotted on paper towels to remove cell media. Cells were fixed for 20 minutes at room temperature by adding 50 ul of 8% PFA followed by aspiration of supernatant with the Biotek EL406 plate washer. Cells were then permeabilized by addition of 50 μL of ice cold 100% methanol directly to each well and incubated for 30 min at room temperature. After 30 min, plates were transferred to a Biotek EL406 plate washer and washed 2 times with 100 μL per well of wash buffer (1×PBS). Next 60 μL per well of Odyssey blocking buffer (Odyssey Buffer with 0.1% Tween 20 (v/v)) were added to each plate and incubated 1 hour at room temperature. Blocking buffer was removed and 20 μL per well of primary antibody was added (asymmetric-methyl PABP1) diluted 1:400 in Odyssey buffer with 0.1% Tween 20 (v/v)) and plates were incubated overnight (16 hours) at 4° C. Plates were washed 5 times with 100 μL per well of wash buffer. Next 20 μL per well of secondary antibody was added (1:800 800CW goat anti-rabbit IgG (H+L) antibody, 1:2000 DRAQ5 in Odyssey buffer with 0.1% Tween 20 (v/v)) and incubated for 1 hour at room temperature. The plates were washed 5 times with 100 μL per well wash buffer then 2 times with 100 μL per well of water. Plates were allowed to dry at room temperature then imaged on the Licor Odyssey machine which measures integrated intensity at 700 nm and 800 nm wavelengths. Both 700 and 800 channels were scanned.
First, the ratio for each well was determined by:
Each plate included fourteen control wells of DMSO only treatment (minimum inhibition) as well as fourteen control wells for maximum inhibition treated with 20 μM of a reference compound. The average of the ratio values for each control type was calculated and used to determine the percent […] for each test well in the plate. Reference compound was serially diluted three-fold in DMSO for a total of nine test concentrations, beginning at 20 μM.
Percent inhibition was determined and IC50 curves were generated using triplicate wells per concentration of compound.

CNC[C@@H](O)COc1ccc(Cl)c(-c2nc(-c3c(Br)cnn3C)c(C)c(N3Cc4cccnc4C3)n2)c1 gave an IC50 (Human CARM1 (PRMT4)) of 1.2 nM and an IC50 [1] of 71 nM.

In the case of CNC[C@@H](O)COc1ccc(Cl)c(-c2nc(-c3c(C)noc3C)c(C)c(N3CC4CC3CN(CC(F)F)C(=O)O4)n2)c1 (single isomer, unassigned) [132], the IC50 (Human CARM1 (PRMT4)) is reported as 6.6 nM and the IC50 [1] is reported as 637 nM.

With CNC[C@@H](O)COc1ccc(Cl)c(-c2nc(-c3c(C)noc3C)c(C)c(N3C4CCC3c3ncccc34)n2)c1 (stereo partly shown) the IC50 (Human CARM1 (PRMT4)) was 6 nM and the IC50 [1] was 1400 nM.

CNC[C@@H](O)COc1ccc(Cl)c(-c2nc(-c3c(Br)cnn3C)c(C)c(N3CC4=C(CN(C(=O)OC)CC4)C3)n2)c1 gave an IC50 (Human CARM1 (PRMT4)) of 4.76 nM and an IC50 [1] of 42.3 nM.

Work on CNC[C@@H](O)COc1ccc(Cl)c(-c2nc(-c3c(Br)cnn3C)c(C)c(N3Cc4cnc(N5CC(OC)C5)nc4C3)n2)c1 yielded an IC50 (Human CARM1 (PRMT4)) of 1.17 nM and an IC50 [1] of 16.2 nM.

CNC[C@@H](O)COc1ccc(Cl)c(-c2nc(-c3c(C)noc3C)c(C)c(N3CC4CC3CN(CC(F)F)C(=O)O4)n2)c1 (single isomer, unassigned) [138] showed an IC50 (Human CARM1 (PRMT4)) of 4.6 nM and an IC50 [1] of 581 nM.

CNC[C@@H](O)COc1ccc(Cl)c(-c2nc(-c3c(C)c(Cl)nn3C)c(C)c(N3Cc4cnc(N5CC(OC)C5)nc4C3)n2)c1 was tested, and the IC50 (Human CARM1 (PRMT4)) was 3 nM and the IC50 [1] was 26 nM.

Compound CNC[C@@H](O)COc1ccc(Cl)c(-c2nc(-c3c(C)c(Br)nn3C)c(C)c(N3Cc4ccc(N5CCC5)nc4C3)n2)c1 has an IC50 (Human CARM1 (PRMT4)) of 1.2 nM and an IC50 [1] of 30 nM.

Compound CCOc1ncc2c(n1)CN(c1nc(-c3cc(OC[C@H](O)CNC)ccc3Cl)nc(-c3c(Br)cnn3C)c1C)C2 has an IC50 (Human CARM1 (PRMT4)) of 2 nM and an IC50 [1] of 36.8 nM.

Work on CNC[C@@H](O)COc1ccc(Cl)c(-c2nc(-c3c(C)c(Br)nn3C)c(C)c(N3Cc4cccnc4C3)n2)c1 yielded an IC50 (Human CARM1 (PRMT4)) of 0.8 nM and an IC50 [1] of 21 nM.

Work on CNC[C@@H](O)COc1ccc(Cl)c(-c2nc(-c3c(Cl)cnn3C)c(C)c(N3Cc4cnc(C5CC5)nc4C3)n2)c1 yielded an IC50 (Human CARM1 (PRMT4)) of 1.76 nM and an IC50 [1] of 54.2 nM.
